Key:
Aurora A [1] = molecular target: T1, Aurora A (Homo sapiens, UniProt O14965); test: Activation of Aurora A by TPX2^1–43 under kinase reaction conditions; settings: read-out: Concentration required to achieve half-maximal activation of Aurora A; kinase reaction conditions of the Aurora A/TPX2^1–43 assay
T1 sequence (O14965 1-403): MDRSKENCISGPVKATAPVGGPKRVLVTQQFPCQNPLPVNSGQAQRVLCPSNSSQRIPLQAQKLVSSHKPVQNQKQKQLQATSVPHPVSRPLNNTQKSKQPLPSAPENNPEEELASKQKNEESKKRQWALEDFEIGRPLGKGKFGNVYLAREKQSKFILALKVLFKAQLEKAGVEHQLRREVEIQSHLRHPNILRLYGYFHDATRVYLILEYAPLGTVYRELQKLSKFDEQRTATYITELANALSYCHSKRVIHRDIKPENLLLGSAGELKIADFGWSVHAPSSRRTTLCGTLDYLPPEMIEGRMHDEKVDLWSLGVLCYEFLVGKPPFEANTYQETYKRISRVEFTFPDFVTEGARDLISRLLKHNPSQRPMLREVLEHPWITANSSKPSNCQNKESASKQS

Aurora A [2] = molecular target: T1, Aurora A; design: purified full-length human Aurora A (Millipore); purchased Millipore; settings: previously reported; read-out: Kd of TPX2^1–43; cited from earlier work

CC[C@H](C)[C@H](NC(=O)[C@H](Cc1ccccc1)NC(=O)[C@H](CC(=O)O)NC(=O)[C@H](CO)NC(=O)[C@@H]1CCCN1C(=O)[C@H](C)NC(=O)[C@H](CC(=O)O)NC(=O)[C@H](Cc1ccc(O)cc1)NC(=O)[C@H](CO)NC(=O)[C@H](Cc1ccc(O)cc1)NC(=O)[C@H](CO)NC(=O)[C@H](CO)NC(=O)[C@H](CCCCN)NC(=O)[C@@H](NC(=O)[C@H](CCC(N)=O)NC(=O)[C@H](CO)NC(=O)[C@@H](N)CCSC)C(C)C)C(=O)N[C@@H](CC(N)=O)C(=O)N[C@@H](Cc1ccccc1)C(=O)N[C@@H](CO)C(=O)N[C@@H](CO)C(=O)N[C@@H](CC(C)C)C(=O)N[C@@H](CC(=O)O)C(=O)N[C@@H](CC(=O)O)C(=O)N[C@@H](CCC(=O)O)C(=O)NCC(=O)N[C@@H](CC(=O)O)C(=O)N[C@H](C(=O)N[C@@H](CCC(N)=O)C(=O)N[C@@H](CC(N)=O)C(=O)N[C@H](C(=O)N[C@@H](CC(=O)O)C(=O)N[C@@H](CO)C(=O)N[C@@H](Cc1c[nH]c2ccccc12)C(=O)N[C@@H](Cc1ccccc1)C(=O)N[C@@H](CCC(=O)O)C(=O)N[C@@H](CCC(=O)O)C(=O)N[C@@H](CCCCN)C(=O)N[C@@H](C)C(=O)N[C@@H](CC(N)=O)C(=O)N[C@@H](CC(C)C)C(=O)N[C@@H](CCC(=O)O)C(=O)N[C@@H](CC(N)=O)C(=O)O)[C@@H](C)CC)[C@@H](C)O [TPX2^1–43]
EC50 (Aurora A [1]): 3 nM | Kd (Aurora A [2]): 2.3 nM

Source: PMC4685510, “A Cell Biologist’s Field Guide to Aurora Kinase Inhibitors” (Frontiers in Oncology, 2015)
